Test results from PubChem BioAssay (Tox21).
Values joined by “and” are separate entries in the source; they are usually repeats but may differ in a detail not shown here. Equal entries are not always repeated. The entries are a selection whose mix differs from that of the whole data set. Inconclusive results are not listed. Active and inactive are the calls of the source. Unless noted, calls come from the whole dose curve; as a rule, active = well fitted curve in the direction sought with a large enough effect in the repeat runs; inconclusive = weak or mixed curves; inactive = no such curve, though single readings can be large; an effect the other way counts as inactive or inconclusive.

The chains behind the UniProt entries cited, without tags or fusion partners.
UniProt P10275, whole entry: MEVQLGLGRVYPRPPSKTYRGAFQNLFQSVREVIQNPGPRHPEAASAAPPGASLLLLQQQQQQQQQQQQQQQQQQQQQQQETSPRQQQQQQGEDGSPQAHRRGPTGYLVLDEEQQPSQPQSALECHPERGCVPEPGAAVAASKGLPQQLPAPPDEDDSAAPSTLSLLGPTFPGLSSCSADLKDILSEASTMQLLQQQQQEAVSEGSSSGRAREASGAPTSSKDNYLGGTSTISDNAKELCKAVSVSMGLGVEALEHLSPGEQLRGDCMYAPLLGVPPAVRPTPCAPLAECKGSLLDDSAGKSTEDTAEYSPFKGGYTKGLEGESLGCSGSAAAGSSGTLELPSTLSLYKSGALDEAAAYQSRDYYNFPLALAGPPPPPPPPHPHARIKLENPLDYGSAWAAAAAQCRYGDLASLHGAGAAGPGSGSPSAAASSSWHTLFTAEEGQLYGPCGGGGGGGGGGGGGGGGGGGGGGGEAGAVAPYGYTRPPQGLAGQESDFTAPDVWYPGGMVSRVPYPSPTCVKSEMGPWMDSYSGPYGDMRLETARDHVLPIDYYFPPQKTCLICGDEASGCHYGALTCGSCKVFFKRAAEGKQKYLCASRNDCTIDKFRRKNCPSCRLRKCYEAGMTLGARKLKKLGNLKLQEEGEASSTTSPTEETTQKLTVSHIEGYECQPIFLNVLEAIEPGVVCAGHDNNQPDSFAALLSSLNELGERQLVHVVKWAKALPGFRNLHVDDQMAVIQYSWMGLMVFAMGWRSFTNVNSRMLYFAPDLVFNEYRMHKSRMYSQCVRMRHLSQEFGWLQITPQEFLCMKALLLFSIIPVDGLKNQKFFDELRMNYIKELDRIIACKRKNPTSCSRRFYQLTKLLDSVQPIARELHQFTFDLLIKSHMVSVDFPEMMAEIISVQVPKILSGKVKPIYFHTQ
UniProt Q14994, whole entry: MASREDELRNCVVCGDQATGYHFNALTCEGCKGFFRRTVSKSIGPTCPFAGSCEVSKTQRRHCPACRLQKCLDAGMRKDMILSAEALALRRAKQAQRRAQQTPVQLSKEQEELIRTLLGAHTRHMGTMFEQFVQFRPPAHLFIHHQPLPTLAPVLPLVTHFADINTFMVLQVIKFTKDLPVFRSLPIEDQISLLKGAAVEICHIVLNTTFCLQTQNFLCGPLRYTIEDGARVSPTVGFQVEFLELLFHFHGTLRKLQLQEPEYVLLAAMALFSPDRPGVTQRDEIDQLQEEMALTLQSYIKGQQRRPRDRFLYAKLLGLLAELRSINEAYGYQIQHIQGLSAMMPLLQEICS
UniProt Q92731, whole entry: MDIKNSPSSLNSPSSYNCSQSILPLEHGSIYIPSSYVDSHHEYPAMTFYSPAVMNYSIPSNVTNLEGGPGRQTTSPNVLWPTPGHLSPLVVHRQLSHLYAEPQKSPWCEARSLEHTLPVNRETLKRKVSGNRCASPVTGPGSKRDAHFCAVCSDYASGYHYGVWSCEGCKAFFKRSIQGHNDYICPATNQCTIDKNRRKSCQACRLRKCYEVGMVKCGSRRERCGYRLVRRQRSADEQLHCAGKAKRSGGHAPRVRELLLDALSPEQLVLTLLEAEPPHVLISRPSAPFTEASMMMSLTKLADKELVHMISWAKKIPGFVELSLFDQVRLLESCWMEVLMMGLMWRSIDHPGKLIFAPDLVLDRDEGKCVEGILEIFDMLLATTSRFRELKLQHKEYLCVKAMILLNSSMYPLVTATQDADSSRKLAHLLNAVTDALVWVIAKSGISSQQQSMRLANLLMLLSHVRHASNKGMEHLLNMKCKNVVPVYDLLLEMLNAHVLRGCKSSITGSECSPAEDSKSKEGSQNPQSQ
UniProt P16473, whole entry: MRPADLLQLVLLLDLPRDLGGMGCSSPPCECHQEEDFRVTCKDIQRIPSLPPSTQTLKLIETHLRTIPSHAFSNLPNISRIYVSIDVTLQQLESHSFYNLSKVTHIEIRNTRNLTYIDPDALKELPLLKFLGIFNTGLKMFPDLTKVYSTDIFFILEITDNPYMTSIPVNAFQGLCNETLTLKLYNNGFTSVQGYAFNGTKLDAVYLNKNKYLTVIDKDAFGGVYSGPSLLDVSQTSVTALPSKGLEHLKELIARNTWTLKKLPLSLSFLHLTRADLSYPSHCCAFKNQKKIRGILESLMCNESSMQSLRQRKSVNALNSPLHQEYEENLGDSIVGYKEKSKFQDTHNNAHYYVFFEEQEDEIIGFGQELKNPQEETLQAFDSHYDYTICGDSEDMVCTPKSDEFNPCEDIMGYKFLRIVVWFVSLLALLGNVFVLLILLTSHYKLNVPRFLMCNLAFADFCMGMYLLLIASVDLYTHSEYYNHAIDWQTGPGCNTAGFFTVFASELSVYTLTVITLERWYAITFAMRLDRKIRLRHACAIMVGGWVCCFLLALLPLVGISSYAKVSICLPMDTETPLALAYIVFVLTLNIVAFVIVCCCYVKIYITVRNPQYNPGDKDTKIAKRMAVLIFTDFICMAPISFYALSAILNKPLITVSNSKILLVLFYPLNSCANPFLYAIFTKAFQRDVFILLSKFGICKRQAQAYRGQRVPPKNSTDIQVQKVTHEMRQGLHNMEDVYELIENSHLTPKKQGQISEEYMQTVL

Columns and labels:
[1] = qHTS assay for small molecules that induce genotoxicity in human embryonic kidney cells expressing luciferase-tagged ATAD5 - cell viability (AID 651634; calls by dose curve; note: nearly all actives have a fitted effect of over 25% in size); conditions: HEK293T ATAD5-luc cells viability, CellTiter-Fluor, 15.5 h
Method in brief: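 Seeding of 2,000 HEK293T ATAD5-luciferase cells per well preceded pin-tool compound transfer. Plates sat 15.5 hr at 37C under 5% CO2, then fluorescence was read after 30 min with CellTiter-Fluor.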

[2] = biological target: Androgen receptor (Homo sapiens) (UniProt P10275); test: qHTS assay to identify small molecule antagonists of the androgen receptor (AR) signaling pathway using the MDA cell line (AID 743042; note: nearly all actives have a fitted effect of over 55% in size); conditions: MDA-kb2 AR-luc, MMTV luciferase, R1881 antagonist, 16 h
[3] = qHTS assay to identify aromatase inhibitors - cell viability counter screen (AID 743084); conditions: MCF-7 aro ERE viability, CellTiter-Fluor, 24 h; series mostly up to 70.3 µM;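 note: cells stimulated with testosterone during compound exposure; nearly all actives have a fitted effect of over 55% in size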
[4] = qHTS assay for small molecule agonists of the antioxidant response element (ARE) signaling pathway - cell viability counter screen (AID 743203; calls by dose curve; note: nearly all actives have a fitted effect of over 55% in size); conditions: ARE-bla HepG2 viability, CellTiter-Glo luminescence, 16 h
Method in brief: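 Compounds in DMSO were pinned onto ARE-bla HepG2 cells plated 5 hrs earlier at 2,000 cells/well. Sixteen hours later at 37C/5% CO2, CellTiter-Glo was added and luminescence measured after 30 min at room temperature.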

[5] = qHTS assay to identify small molecule agonists of the endoplasmic reticulum stress response signaling pathway - cell viability counter screen (AID 1159517; calls by dose curve; note: nearly all actives have a fitted effect of over 50% in size); conditions: ESRE-bla HeLa viability, CellTiter-Glo luminescence, 5 h; series mostly up to 61 µM
Method in brief: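 Luminescence readout: CellTiter-Glo, 30 min RT, same wells as the ESRE-bla reporter read. HeLa ESRE-bla, 1,500 cells/well, o/n 37 C; cpd 5 hr 37 C/5% CO2.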

[6] = qHTS assay to identify small molecule antagonists of the retinoic acid receptor (RAR) signaling pathway (AID 1159552; note: nearly all actives have a fitted effect of over 50% in size); conditions: C3RL4 RARE luciferase reporter, retinol-stimulated, 6 h
Method in brief: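 RARE-luc C3RL4 cells; cpds + 1 uM (final) retinol, 6 hr, 37 C/5% CO2; luciferase reagent, 30 min RT, luminescence readout. Inhibitors of retinol-driven signal scored.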

[7] = qHTS assay to identify small molecule agonists of the constitutive androstane receptor (CAR) signaling pathway - cell viability counter screen (AID 1224836); conditions: HepG2-CYP2B6-hCAR viability, CellTiter-Fluor, 23 h, PK11195 added to every well; series mostly up to 92.4 µM; note: nearly all actives have a fitted effect of over 45% in size
Method in brief: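 HepG2 cells stably carrying hCAR and a CYP2B6-2.2kb reporter were plated 4 h, then given compounds at 15 concentrations plus PK11195 (final 0.75 uM). After 23 h at 37 C, viability was read by CellTiter-Fluor fluorescence.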

[8] = biological target: Nuclear receptor subfamily 1 group I member 3 (Homo sapiens) (UniProt Q14994); test: qHTS assay to identify small molecule antagonists of the constitutive androstane receptor (CAR) signaling pathway (AID 1224838); conditions: HepG2-CYP2B6-hCAR luciferase, CITCO-stimulated, 24 h;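 note: HepG2 cells stably expressing hCAR with CYP2B6 luciferase reporter stimulated by CITCO; nearly all actives have a fitted effect of over 40% in size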
[9] = qHTS assay to identify small molecule antagonists of the estrogen related receptor signaling pathway with the pleiotropic PPARgamma coactivator (PGC) from Tox21 10K library - cell viability counter screen (AID 1224840; active = well fitted cell-killing curve with a large enough effect in the repeat runs, not every such curve was filed as active; note: nearly all actives have a fitted effect of over 40% in size); conditions: PGC/ERR reporter cells viability, CellTiter-Fluor, 17.5 h; series mostly up to 92.4 µM
Method in brief: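 Here the PGC/ERR cells serve as a cytotoxicity control: they are exposed to compounds for 17.5 hours at 37 C, and live-cell signal is quantified using CellTiter-Fluor fluorescence.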

[10] = qHTS assay to identify small molecule antagonists of the estrogen related receptor signaling pathway with the pleiotropic PPARgamma coactivator (PGC) from Tox21 10K library (AID 1224841; call rule not given here; note: actives are mostly falling curves and most rising ones were filed inactive; nearly all actives have a fitted effect of over 50% in size); conditions: PGC/ERR reporter cell line, ONE-Glo luciferase, 18 h
[11] = qHTS RealTime-Glo MT Cell Viability Assay in HEK293 cells - 32 hour (AID 1224868); conditions: RealTime-Glo luminescence; series mostly up to 76.8 µM; note: nearly all actives have a fitted effect of over 50% in size
Method in brief: (§1)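 HEK293 cells were seeded at 600 cells/well together with NanoLuc luciferase and cell-permeant prosubstrate, preincubated 5 h at 37 C/5% CO2, then given compound in DMSO by pintool. Luminescence from viable-cell prosubstrate reduction was read repeatedly over 40 h.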

[12] = qHTS RealTime-Glo MT Cell Viability Assay in HepG2 cells - 8 hour (AID 1224873); conditions: RealTime-Glo luminescence; series mostly up to 76.8 µM; note: nearly all actives have a fitted effect of over 55% in size
Method in brief: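 HepG2 cells mixed with RealTime-Glo MT reagents (NanoLuc plus cell-permeant prosubstrate) were seeded at 600 cells/well, incubated 5 h at 37 C/5% CO2, then pinned with compounds in DMSO; nonlytic luminescence tracked viability during 40 h treatment.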

[13] = qHTS RealTime-Glo MT Cell Viability Assay in HEK293 cells - 40 hour (AID 1224874); conditions: RealTime-Glo luminescence; note: nearly all actives have a fitted effect of over 50% in size
Method in brief: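 Tox21 screen in HEK293 using RealTime-Glo MT chemistry, with cells and reagent co-dispensed. Luminescence proportional to viable cell number was captured at intervals during 40 h compound exposure at 37 C.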

[14] = A CellTox Green Cytotoxicity Assay to monitor cytotoxicity in HepG2 cells - 24 hour (AID 1224878); conditions: CellTox Green fluorescence; note: nearly all actives have a fitted effect of over 45% in size
Method in brief: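 Nonlytic assay: viable cells exclude the dye, so fluorescence scales with cell death. HepG2 at 600 cells/well, compounds added after 5 h, signal read across 40 h.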

[15] = qHTS RealTime-Glo MT Cell Viability Assay in HEK293 cells - 24 hour (AID 1224886); conditions: RealTime-Glo luminescence; note: nearly all actives have a fitted effect of over 50% in size
Method in brief: as §1

[16] = qHTS assay to identify small molecule antagonists of the androgen receptor (AR) signaling pathway using the MDA cell line in the presence of 0.5 nM R1881 - cell viability counter screen (AID 1259242); conditions: MDA-kb2 viability, CellTiter-Fluor protease fluorescence, 16 h; series mostly up to 92.4 µM; note: nearly all actives have a fitted effect of over 45% in size
Method in brief: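 R1881 at 0.5 nM final stimulated MDA-kb2 cells during 16 hr compound treatment at 37C. Cytotoxicity read: CellTiter-Fluor fluorescence after 30 min.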

[17] = qHTS assay to identify small molecule agonists of the sonic hedgehog signaling (Shh) pathway - cell viability counter screen (AID 1259366); conditions: NIH/3T3 Gli1-Luc viability, CellTiter-Fluor, 24 h; note: nearly all actives have a fitted effect of over 50% in size
Method in brief: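 NIH/3T3-derived 3T3 Gli1-Luc cells (stable Gli1-responsive firefly luciferase reporter) were seeded, rested 4 hr at 37 C/5% CO2, then exposed to compounds in DMSO for 24 hr; viability was read by CellTiter-Fluor fluorescence in the same wells.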

[18] = qHTS assay to identify small molecule antagonists of the sonic hedgehog signaling (Shh) pathway - cell viability counter screen (AID 1259367); conditions: NIH/3T3 Gli1-Luc viability, CellTiter-Fluor, 24 h; note: nearly all actives have a fitted effect of over 55% in size
Method in brief: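 NIH/3T3-derived Gli1-Luc reporter cells (2,000 per well) rested 4 hr at 37 C, then received DMSO compounds plus conditioned medium. After 23 hr of treatment, CellTiter-Fluor was added for 1 hr at 37C and fluorescence read.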

[19] = biological target: Estrogen receptor beta (Homo sapiens) (UniProt Q92731); test: qHTS assay to identify small molecule antagonists of the estrogen receptor beta (ER-beta) signaling pathway (AID 1259378; active = well fitted inhibition curve with a large enough effect in the signal ratio in the repeat runs, not every such curve was filed as active; the % refers to the signal ratio); conditions: ER-beta-UAS-bla HEK293T, beta-lactamase FRET ratio, 16 h
Method in brief: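 ER-beta-UAS-bla HEK293T (GripTite) cells in 2% charcoal-stripped FBS medium were preincubated 6 hr at 37C, dosed with compound, then stimulated with 1 nM E2 (final) for 16 hr; beta-lactamase reporter read by B/G FRET fluorescence after 2 hr substrate loading.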

[20] = qHTS assay to identify small molecule agonists of the androgen receptor (AR) signaling pathway in the presence of an antagonist - cell viability counter screen (AID 1259379); conditions: MDA-kb2 viability, CellTiter-Fluor, 16 h; note: nearly all actives have a fitted effect of over 25% in size
Method in brief: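 A CellTiter-Fluor read-out measured viability of MDA-kb2 reporter cells (MMTV promoter with AR and GR response elements). Treatment: nilutamide 3.0uM final with compounds at 15 concentrations, 16 hr, 37C, 0% CO2.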

[21] = qHTS assay to identify small molecule agonists of the estrogen receptor beta (ER-beta) signaling pathway - cell viability counter screen (AID 1259380); conditions: ER-beta-bla HEK293T viability, CellTiter-Glo luminescence, 16 h; note: nearly all actives have a fitted effect of over 30% in size
Method in brief: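 Cells used were ER-beta-UAS-bla HEK293T in medium with 2% charcoal-stripped FBS. They were treated for 16 hr at 37C. Viability came from CellTiter-Glo luminescence.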

[22] = qHTS assay to identify small molecule antagonists of the estrogen receptor beta (ER-beta) signaling pathway - cell viability counter screen (AID 1259382); conditions: ER-beta-UAS-bla HEK293T viability, CellTiter-Glo luminescence, 16 h; note: nearly all actives have a fitted effect of over 55% in size
Method in brief: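 Agonist-stimulated (1nM E2) ER-beta-UAS-bla HEK293T cells are incubated with library compounds for 16 hr at 37C. Cell viability is then assessed in the reporter-assay wells by adding CellTiter-Glo and reading luminescence after 30 min.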

[23] = biological target: Thyrotropin receptor (Homo sapiens) (UniProt P16473); test: qHTS assay to identify small molecule antagonists of the thyroid stimulating hormone receptor (TSHR) signaling pathway (AID 1259385; calls by dose curve; note: nearly all actives have a fitted effect of over 20% in size); conditions: TSHR-HEK293 cAMP HTRF, TSH-stimulated antagonist mode
[24] = qHTS assay to identify small molecule agonists of the TGF-beta/Smad signaling pathway - cell viability counter screen (AID 1346829); conditions: SBE-bla HEK293T viability, CellTiter-Glo luminescence, 5 h; note: nearly all actives have a fitted effect of over 45% in size
Method in brief: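 CellTiter-Glo luminescence readout; SBE-bla HEK 293T cells, overnight plating, compound 5 hr at 37 C/5% CO2, then bla substrate 2 hr RT, then CellTiter-Glo 30 min RT.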

[25] = Caspase-3/7 induction in HepG2 cells by small molecules, qHTS assay (AID 1346978); conditions: HepG2 caspase-3/7 activation, Caspase-Glo luminescence, 17 h; note: nearly all actives have a fitted effect of over 15% in size
Method in brief: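 Wild-type HepG2 cells (2,000/well) were settled 5 h at 37 C, 5% CO2, then exposed to compounds in DMSO for 17 h. Caspase-3/7 activity was read by luminescence 30 min after adding Caspase-Glo 3/7 reagent at room temperature.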

Measured: Potency
Potency is the fitted concentration of half-maximal effect.

O=C1C2CC=CCC2C(=O)N1SC(Cl)(Cl)C(Cl)Cl (stereo not given)
active: [1] 54.9 µM and 61.1 µM | [2] 2.75 µM and 3.06 µM | [3] 2.75 µM and 3.06 µM | [4] 3.06 µM | [5] 61.6 µM | [6] 15.5 µM and 3.86 µM | [7] 54.9 µM and 19.3 µM | [8] 19.5 µM and 8.63 µM | [9] 17.2 µM | [10] 24.5 µM and 8.63 µM | [11] 5.53 µM and 3.09 µM | [12] 12.3 µM | [13] 4.93 µM and 2.75 µM | [14] 19.6 µM and 6.16 µM | [15] 6.97 µM and 3.47 µM | [16] 27.3 µM | [17] 6.16 µM and 3.86 µM | [18] 4.89 µM and 5.45 µM | [19] 12.3 µM | [20] 61.6 µM and 27.3 µM | [21] 21.8 µM and 27.3 µM | [22] 17.2 µM | [23] 38.6 µM | [24] 24.5 µM | [25] 13.8 µM and 5.45 µM
